The target in one assay is T1, α4β2 nAChR subtype (Rattus norvegicus, UniProt P09483+P12390).
T1 construct: The cerebral cortex was removed and placed in 20 volumes (weight:volume) of ice-old preparative buffer; from tissue; host or cells: rat cerebral cortex membranes
Kind of assay: biochemical. In kind it is binding.

The chains behind the UniProt entries cited, without tags or fusion partners. Residues count along the entry.
UniProt P09483, 31-630: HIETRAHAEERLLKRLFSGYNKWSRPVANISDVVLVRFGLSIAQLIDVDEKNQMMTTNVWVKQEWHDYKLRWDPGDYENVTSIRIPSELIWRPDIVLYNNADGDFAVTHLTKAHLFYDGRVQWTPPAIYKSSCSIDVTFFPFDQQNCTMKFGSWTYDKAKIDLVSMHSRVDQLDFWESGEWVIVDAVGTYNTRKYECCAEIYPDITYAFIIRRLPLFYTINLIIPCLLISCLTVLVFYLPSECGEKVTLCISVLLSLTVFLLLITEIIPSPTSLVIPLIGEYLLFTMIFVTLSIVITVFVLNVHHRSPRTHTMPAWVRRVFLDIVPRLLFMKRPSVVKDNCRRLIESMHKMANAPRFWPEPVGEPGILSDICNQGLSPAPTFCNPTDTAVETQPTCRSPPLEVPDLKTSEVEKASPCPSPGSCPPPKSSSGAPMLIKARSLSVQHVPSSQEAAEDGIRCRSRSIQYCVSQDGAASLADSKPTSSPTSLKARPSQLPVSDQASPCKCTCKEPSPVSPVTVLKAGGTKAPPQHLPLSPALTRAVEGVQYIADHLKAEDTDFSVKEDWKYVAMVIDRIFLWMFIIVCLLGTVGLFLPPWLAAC
UniProt P12390, 25-500: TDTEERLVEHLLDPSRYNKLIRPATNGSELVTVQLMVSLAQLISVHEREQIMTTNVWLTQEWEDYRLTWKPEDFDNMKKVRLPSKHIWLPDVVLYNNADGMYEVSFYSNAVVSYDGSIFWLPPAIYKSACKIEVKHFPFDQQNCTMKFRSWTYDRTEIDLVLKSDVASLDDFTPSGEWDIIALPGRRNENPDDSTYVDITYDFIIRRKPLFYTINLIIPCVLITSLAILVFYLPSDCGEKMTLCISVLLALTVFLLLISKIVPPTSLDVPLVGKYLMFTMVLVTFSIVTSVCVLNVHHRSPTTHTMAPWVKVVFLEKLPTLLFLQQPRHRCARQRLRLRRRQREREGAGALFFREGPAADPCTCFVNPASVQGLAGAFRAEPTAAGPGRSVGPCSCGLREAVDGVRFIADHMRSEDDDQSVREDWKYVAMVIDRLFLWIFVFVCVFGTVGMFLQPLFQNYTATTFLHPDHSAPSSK
UniProt P04757, 26-499: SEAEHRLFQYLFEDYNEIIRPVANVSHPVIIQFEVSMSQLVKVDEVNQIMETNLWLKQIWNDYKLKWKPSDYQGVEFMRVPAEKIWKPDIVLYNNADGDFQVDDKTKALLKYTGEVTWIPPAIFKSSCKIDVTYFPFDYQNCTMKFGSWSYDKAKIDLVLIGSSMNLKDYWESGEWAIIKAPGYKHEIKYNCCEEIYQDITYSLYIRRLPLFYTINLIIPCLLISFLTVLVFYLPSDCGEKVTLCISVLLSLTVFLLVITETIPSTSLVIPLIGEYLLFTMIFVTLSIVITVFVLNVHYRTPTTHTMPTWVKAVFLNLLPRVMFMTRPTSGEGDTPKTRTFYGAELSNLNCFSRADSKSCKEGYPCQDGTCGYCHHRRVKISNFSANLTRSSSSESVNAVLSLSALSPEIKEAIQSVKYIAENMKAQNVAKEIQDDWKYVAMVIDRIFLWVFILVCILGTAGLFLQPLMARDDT
UniProt P12392, 21-495: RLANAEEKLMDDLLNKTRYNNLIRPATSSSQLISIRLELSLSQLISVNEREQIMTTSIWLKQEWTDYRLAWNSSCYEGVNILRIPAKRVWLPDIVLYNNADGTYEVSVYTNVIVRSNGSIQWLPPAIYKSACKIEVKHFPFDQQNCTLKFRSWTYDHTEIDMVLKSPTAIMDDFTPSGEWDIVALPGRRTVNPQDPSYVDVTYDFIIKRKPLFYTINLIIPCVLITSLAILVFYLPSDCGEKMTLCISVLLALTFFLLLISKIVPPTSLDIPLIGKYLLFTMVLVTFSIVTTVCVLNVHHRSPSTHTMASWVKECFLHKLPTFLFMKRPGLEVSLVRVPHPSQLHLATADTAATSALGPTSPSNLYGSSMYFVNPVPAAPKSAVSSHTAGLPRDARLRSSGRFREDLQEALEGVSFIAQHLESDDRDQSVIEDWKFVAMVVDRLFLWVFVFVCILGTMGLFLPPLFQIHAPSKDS
UniProt P02708, 21-457: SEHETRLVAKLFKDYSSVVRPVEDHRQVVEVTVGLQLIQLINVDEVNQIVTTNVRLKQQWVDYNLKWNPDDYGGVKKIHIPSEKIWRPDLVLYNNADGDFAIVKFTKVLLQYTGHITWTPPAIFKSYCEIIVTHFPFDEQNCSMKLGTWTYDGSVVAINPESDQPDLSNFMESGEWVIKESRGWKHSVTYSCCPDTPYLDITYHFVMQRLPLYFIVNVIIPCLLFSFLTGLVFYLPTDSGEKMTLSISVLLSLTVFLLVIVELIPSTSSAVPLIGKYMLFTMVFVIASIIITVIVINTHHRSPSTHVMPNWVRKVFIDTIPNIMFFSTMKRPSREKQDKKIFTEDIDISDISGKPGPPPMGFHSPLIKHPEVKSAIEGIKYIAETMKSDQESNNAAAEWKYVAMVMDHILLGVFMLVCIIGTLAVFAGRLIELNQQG
UniProt P07510, 23-517: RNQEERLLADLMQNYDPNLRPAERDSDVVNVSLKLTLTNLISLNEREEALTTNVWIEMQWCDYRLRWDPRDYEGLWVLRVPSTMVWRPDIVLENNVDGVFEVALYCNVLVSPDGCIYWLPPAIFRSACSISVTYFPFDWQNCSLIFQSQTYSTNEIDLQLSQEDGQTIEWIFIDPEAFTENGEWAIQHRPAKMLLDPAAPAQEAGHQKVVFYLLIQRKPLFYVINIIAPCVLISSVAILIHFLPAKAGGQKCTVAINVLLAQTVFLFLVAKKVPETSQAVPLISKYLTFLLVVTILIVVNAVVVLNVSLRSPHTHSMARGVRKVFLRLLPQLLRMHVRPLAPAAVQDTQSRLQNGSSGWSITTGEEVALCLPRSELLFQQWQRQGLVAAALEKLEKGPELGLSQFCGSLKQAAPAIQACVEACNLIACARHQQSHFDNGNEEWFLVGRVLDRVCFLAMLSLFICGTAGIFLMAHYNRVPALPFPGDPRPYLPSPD
UniProt Q07001, 22-517: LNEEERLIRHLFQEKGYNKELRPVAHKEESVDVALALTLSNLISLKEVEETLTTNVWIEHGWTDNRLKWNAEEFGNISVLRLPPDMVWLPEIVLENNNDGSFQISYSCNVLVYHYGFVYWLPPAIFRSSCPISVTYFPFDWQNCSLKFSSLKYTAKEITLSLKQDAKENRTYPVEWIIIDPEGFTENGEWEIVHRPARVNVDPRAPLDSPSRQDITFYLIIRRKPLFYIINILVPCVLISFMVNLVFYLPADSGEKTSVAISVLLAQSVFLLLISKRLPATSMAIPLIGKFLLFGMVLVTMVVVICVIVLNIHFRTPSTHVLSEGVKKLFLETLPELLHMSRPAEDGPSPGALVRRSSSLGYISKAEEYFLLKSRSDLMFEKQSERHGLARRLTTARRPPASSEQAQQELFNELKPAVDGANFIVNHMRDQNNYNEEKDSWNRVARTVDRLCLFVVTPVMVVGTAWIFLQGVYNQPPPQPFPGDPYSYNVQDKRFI

For assay [1], the target named is T2, rat ganglionic nAChR subtype (PC12 cells) (Rattus norvegicus, UniProt P04757+P12392).
T2 construct: These cells express ganglion-like nAChRs; endogenous in cells; host or cells: PC12 (rat pheochromocytoma)
The experiment in a line: cell-based. In kind it is cell-based. To be noted: for amounts causing effects upon ganglia relative to those required to cause dopamine release: ganglia effects vs dopamine release. The procedure:
Activation of rat ganglion nAChRs was established on the pheochromocytoma clonal line PC12, which is a continuous clonal cell line of neural crest origin, derived from a tumor of the rat adrenal medulla.
Cells were cultured in Dulbecco's modified Eagle's medium (Gibco/BRL) with 10% horse serum (Gibco/BRL), 5% fetal bovine serum (HyClone, Logan Utah), 1 mM sodium pyruvate, 4 mM L-Glutamine, and 50,000 units penicillin-streptomycin (Irvine Scientific). When cells were 80% confluent, they were plated to 6 well Nunc plates (Nunclon) and coated with 0.03% poly-L-lysine (Sigma, dissolved in 100 mM boric acid). Experiments were conducted when the cells reached 80% confluency.
On the day of the experiment, growth media was gently removed from the well and growth media containing ^86Rubidium chloride (10^6 μCi/mL) was added to each well. Cells were incubated at 37° C. for a minimum of 3 h. […] Next, cells were exposed to either 100 μM of test compound, 100 μM of nicotine or buffer alone for 4 min. Following the exposure period, the supernatant containing the released ^86Rb^+ was removed and transferred to scintillation vials. Scintillation fluid was added and released radioactivity was measured by liquid scintillation counting.
Within each assay, each point had 2 replicates, which were averaged. The amount of ^86Rb^+ release was compared to both a positive control (100 μM nicotine) and a negative control (buffer alone) to determine the percent release relative to that of L-nicotine.
(§1) When appropriate, dose-response curves of test compound were determined. The maximal activation for individual compounds (Emax) was determined as a percentage of the maximal activation induced by L-nicotine. The compound concentration resulting in half maximal activation (EC50) of specific ion flux was also determined.

Assay [2] deals with T3, human muscle nAChR subtype (TE671/RD cells) (Homo sapiens, UniProt P02708+P07510+Q07001).
T3 construct: These cells express receptors that have pharmacological; endogenous in cells; host or cells: TE671/RD (human embryonal rhabdomyosarcoma)
Format: cell-based. The following applies: for amounts causing muscle effects relative to those required to cause dopamine release: muscle effects vs dopamine release. On the procedure: Cells were cultured in Dulbecco's modified Eagle's medium (Gibco/BRL) with 10% horse serum (Gibco/BRL), 5% fetal bovine serum (HyClone, Logan Utah), 1 mM sodium pyruvate, 4 mM L-Glutamine, and 50,000 units penicillin-streptomycin (Irvine Scientific). When cells were 80% confluent, they were plated to 6 well polystyrene plates (Costar). Experiments were conducted when the cells reached 100% confluency.
On the day of the experiment, growth media was gently removed from the well and growth media containing ^86Rubidium chloride (10^6 μCi/mL) was added to each well. Cells were incubated at 37° C. for a minimum of 3 h. […] Next, cells were exposed to either 100 μM of test compound, 100 μM of L-nicotine (Acros Organics) or buffer alone for 4 min. Following the exposure period, the supernatant containing the released ^86Rb^+ was removed and transferred to scintillation vials. Scintillation fluid was added and released radioactivity was measured by liquid scintillation counting.
Within each assay, each point had 2 replicates, which were averaged. The amount of ^86Rb^+ release was compared to both a positive control (100 μM L-nicotine) and a negative control (buffer alone) to determine the percent release relative to that of L-nicotine.
as §1

The test system of assay [3] is striatal synaptosomes (dopamine release). Kind of assay: cells. Format: cell-based, rat.

As for `Brc1cncc(C2CC3CCN2CC3)c1` (racemic) [Sample No. 2, (+/−)-2-(5-bromo-3-pyridyl)-1-azabicyclo[2.2.2]octane], at α4β2 nAChR subtype, the Ki (in general, a measure of affinity in units of concentration, obtained from inhibition or displacement) amounted to 1 nM. Besides, the “amounts causing effects upon ganglia relative to those required to cause dopamine release” value in assay [1] is “many times”. Further, in assay [2], the “amounts causing muscle effects relative to those required to cause dopamine release” value is reported as “many times”.
`c1cncc([C@H]2C[C@@H]3CCN2C3)c1` (relative stereo) [Sample No. 3, exo 2-(3-pyridyl)-1-azabicyclo[2.2.1]heptane] registered a Ki at α4β2 nAChR subtype of 0.5 nM. This lies in the sub-nanomolar range.
`c1cncc([C@@H]2C[C@@H]3CCN2C3)c1` (relative stereo) [Sample No. 4, endo-2-(3-pyridyl)-1-azabicyclo[2.2.1]heptane] yielded a Ki on α4β2 nAChR subtype of 2.5 nM.
For `CCOc1cncc(C2CC3CCN2CC3)c1.Cl.Cl` (stereo not shown) [Sample No. 7, 2-(5-ethoxy-3-pyridyl)-1-azabicyclo[2.2.2]octane dihydrochloride], at α4β2 nAChR subtype, the affinity, expressed as Ki, was 1 nM. This Ki is about 2.5-fold lower than that of the molecule before.
`CC(C)Oc1cncc(C2CC3CCN2CC3)c1.Cl.Cl` (stereo not shown) [Sample No. 8, 2-(5-isopropoxy-3-pyridyl)-1-azabicyclo[2.2.2]octane dihydrochloride] returned a Ki at α4β2 nAChR subtype of 0.4 nM. In addition, the “Dopamine Release Ecmax” value in assay [3] is on record as 31. The EC50 (in general, the concentration needed to bring the measured effect to its halfway point) in assay [3] (Rattus norvegicus, read-out: Dopamine Release EC50) stood at 31 nM. Also, in assay [1], the EC50 turned out to be 10000 nM and the “amounts causing effects upon ganglia relative to those required to cause dopamine release” value is given as “many times”. Also, in assay [2], the “Muscle Effect Ecmax” value is on record as 115 and the “amounts causing muscle effects relative to those required to cause dopamine release” value is on record as “many times”.

These data come from patent publication US7214686B2, “Pharmaceutical compositions and methods for effecting dopamine release” (priority 1997, dated 2007).
